Data set [1] relates to intracerebral RG2 tumors. Description: In vivo metabolomic HRMS study. Details: species or system rat. To be noted: intracerebral RG2 glioma.
In data set [2] the test system is rats bearing intracerebral RG2 gliomas. Description: In vivo biodistribution study, boron determination by ICP-OES. Details: species or system rat. To be noted: 100 μg boron i.c. by ALZET pump over 24 h.

The source of these data is publication PMC4501388 (European journal of medicinal chemistry, 2015).

Where “and” joins values, the source holds several entries; their conditions need not be identical. Identical values can stand only once.

Consider “3-[5-{2-(2,3-dihydroxyprop-1-yl)-o-carboran-1-yl}pentan-1-yl]thymidine [Compound 2]”, for which the “5′-Monophosphate metabolite formation” value in data set [1] (HRMS) was “monophosphorylated”. For the same substance, in data set [1] (HRMS positive and negative ion mode), the “Di- and triphosphate metabolites” value is “could not be detected”. Moreover, the “Boron concentration, L. Brain” value in data set [2] (left cerebral hemisphere) is 1.3 µg/g and 1.3 ± 0.5 µg/g. Further, in data set [2] (right cerebral hemisphere), the “Boron concentration, R. Brain” value was 1.5 µg/g and 2.1 ± 0.9 µg/g.
